Test results from ChEMBL document CHEMBL4024804 (J Med Chem, 2018).

Experiment: in vivo
Conditions: mouse

In the case of `COc1ccc(N(C)c2nc(C)nc3ccccc23)cc1.Cl` [VERUBULIN HYDROCHLORIDE], the MTD is reported as 1 mg/kg.
